Assay results published in patent US20240082272A1, “COMPOSITIONS AND METHODS FOR TREATING WNT-DRIVEN CANCER” (The Regents of the University of Michigan, priority 2020, published 2024).

System: subcutaneous, immunodeficient xenograft model of adrenal cancer
Test: Subcutaneous xenograft model of adrenal cancer
Type: in vivo, mouse
Settings: 200 mg/kg PO daily
Method: To test if disruption of SF1/β-catenin complexes in vivo can cause dedifferentiation (Example 1 and 2) and disrupt tumor growth, the impact of EZH2 inhibition on a xenograft model derived from the Borges et al. Oncogene 2020 genetically engineered mouse model detailed in FIG. 25 was assayed.

For `CCN(c1cc(-c2ccc(CN3CCOCC3)cc2)cc(C(=O)NCc2c(C)cc(C)[nH]c2=O)c1C)C1CCOCC1` [EPZ-6438], the “EZH2/β-catenin complexes (PLA signal)” value (PLA) was “retention of off chromatin EZH2/β-catenin” and the “proliferation rate (Ki67 index)” value (immunohistochemistry, compared to vehicle) was “decreases”.
